For this experiment, the species on record is Homo sapiens. In words: Selectivity ratio of IC50 for recombinant human GST-tagged EPAC2 expressed in Escherichia coli Rosetta 2(DE3) to IC50 for recombinant human GST-tagged EPAC1 (149 to 881 residues) expressed in Escherichia coli Rosetta 2(DE3).

With `C[C@@H]1CCc2c(cc(Br)c(F)c2Br)N1C=O`, the Ratio IC50 amounted to 7.

The values above are taken from ChEMBL document CHEMBL4130621, “Structure-Activity Relationship Studies with Tetrahydroquinoline Analogs as EPAC Inhibitors” (ACS Med Chem Lett, 2017).
